Here are results for 1 compound from PubChem BioAssay AID1502 (Sanford-Burnham Center for Chemical Genomics, 2009).

Protein sequences, listed by entry. Tags and fused reporters are not part of them.
UniProt Q01196, whole entry, looked up: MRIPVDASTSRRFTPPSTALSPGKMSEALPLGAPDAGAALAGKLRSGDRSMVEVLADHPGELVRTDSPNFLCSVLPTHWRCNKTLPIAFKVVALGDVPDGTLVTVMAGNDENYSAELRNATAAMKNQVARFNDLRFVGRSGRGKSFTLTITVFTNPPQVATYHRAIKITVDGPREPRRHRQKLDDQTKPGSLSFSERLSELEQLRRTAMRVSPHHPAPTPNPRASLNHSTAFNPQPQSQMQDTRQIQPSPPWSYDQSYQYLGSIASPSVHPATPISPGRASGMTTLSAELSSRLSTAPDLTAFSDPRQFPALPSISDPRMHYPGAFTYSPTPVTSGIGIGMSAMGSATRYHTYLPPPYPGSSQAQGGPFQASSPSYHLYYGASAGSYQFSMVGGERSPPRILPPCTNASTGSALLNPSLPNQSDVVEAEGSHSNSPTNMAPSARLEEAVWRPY
UniProt Q13951, whole entry, looked up: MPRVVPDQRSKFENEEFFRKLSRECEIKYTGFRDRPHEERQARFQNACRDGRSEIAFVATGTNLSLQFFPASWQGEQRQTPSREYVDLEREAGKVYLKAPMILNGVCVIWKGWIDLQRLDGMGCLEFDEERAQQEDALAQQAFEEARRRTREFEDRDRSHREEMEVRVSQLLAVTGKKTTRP

The term inhibition denotes the relative decrease from the control value, in per cent.

The assay has as its target Runt-related transcription factor 1 (Homo sapiens) + Core-binding factor subunit beta (Homo sapiens) (UniProt Q01196+Q13951). Put plainly: inhibitors of RUNX1 Runt–CBFb binding, biochemical, TR-FRET (AID 1502). Particulars: TR-FRET RUNX1 Runt domain-CBFb binding; at 20 µM; hits give high values. In general terms: Time-resolved FRET reads energy transfer from a long-lived donor to a nearby acceptor.

The entries are a selection whose mix differs from that of the whole data set. Activity calls are given as the source filed them. Rule as the data show it: active = inhibition above about 40%; inactive = the rest.

On to `Cc1cc(SC(NC(=O)c2ccc(F)cc2)C(Cl)(Cl)Cl)ncn1` (stereo unspecified), for which the inhibition was inactive: -29.9%.
